This assay addresses T1, hAChE (Homo sapiens, UniProt P22303).
T1 construct: purchased Sigma C1682
The assay can be described thus: Ellman AChE inhibition assay, recombinant hAChE. The conditions noted are these: pH 7.8, 10 min preincubation; read-out: hAChE recomb. IC50. Format: biochemical. In general terms: Ellman's reagent forms a yellow product with free thiols.

Amino acid sequences for entries named in this document (tags omitted). Residues count along the entry.
UniProt P22303, 32-614: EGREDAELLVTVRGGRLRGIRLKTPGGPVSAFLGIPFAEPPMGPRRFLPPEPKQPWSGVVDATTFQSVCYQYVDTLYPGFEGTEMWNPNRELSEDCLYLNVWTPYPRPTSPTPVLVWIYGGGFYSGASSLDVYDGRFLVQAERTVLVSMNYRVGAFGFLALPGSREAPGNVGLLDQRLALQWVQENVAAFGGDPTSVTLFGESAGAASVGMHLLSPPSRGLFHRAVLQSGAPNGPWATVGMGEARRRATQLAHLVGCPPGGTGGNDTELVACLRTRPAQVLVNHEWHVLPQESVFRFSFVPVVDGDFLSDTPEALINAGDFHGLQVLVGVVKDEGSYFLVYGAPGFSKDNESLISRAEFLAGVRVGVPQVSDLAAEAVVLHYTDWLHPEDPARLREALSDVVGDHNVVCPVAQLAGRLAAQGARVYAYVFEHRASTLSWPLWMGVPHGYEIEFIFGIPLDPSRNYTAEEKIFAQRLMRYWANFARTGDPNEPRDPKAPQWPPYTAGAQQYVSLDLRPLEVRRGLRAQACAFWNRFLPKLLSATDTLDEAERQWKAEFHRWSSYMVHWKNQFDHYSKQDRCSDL

IC50 data for one molecule are collected here from patent US8618162B2 (priority 2007, dated 2013).

The term IC50 denotes the concentration that gives 50% inhibition. On to `CNC(=O)O/N=C/C(C)(C)SC` [Aldicarb, reference compound], for which the IC50 is 4.42 µM.
